# Target: T1, Histone deacetylase 8 (Homo sapiens, UniProt Q9BY41)
# T1 sequence (Q9BY41 whole entry): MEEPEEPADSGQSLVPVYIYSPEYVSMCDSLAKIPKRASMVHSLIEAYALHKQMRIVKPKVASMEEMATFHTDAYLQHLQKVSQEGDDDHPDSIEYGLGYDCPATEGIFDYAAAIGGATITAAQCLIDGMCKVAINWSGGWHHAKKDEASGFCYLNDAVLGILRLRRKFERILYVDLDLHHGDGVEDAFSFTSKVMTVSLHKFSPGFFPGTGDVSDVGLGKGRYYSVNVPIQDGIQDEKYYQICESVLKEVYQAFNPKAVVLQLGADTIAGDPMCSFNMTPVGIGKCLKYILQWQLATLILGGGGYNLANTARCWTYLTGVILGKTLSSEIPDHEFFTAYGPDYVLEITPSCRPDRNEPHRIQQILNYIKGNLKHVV
# Test: Inhibition of recombinant human HDAC8 expressed in Escherichia coli assessed as hydrolase activity using fluorogenic AC-LGK-tfa-AMC as substrate measured after 60 mins by fluorescence analysis
structure (smiles),measurement,value
O=C(CCCCCCC(=O)Nc1ccccc1)NO [VORINOSTAT],Ki,230 nM

# From ChEMBL document CHEMBL3797051 (Medchemcomm, 2016)
